Tests used:
in vivo = conditions: mouse, po
[1] = system: murine tumors and human tumor xenografts; conditions: mouse, in vivo, 120 mg/kg

Row | SMILES | LD50 at 168 h (in vivo) | mortality [1]
1 | O=C1NC(=O)C(c2ccccc2)(c2ccccc2)N1 [Diphenylhydantoin, reference compound] | 128 mg/kg | 
2 | Nc1ccc(C(=O)Nc2ccccc2N)cc1 [Substance A, 4-Amino-N-(2'-aminophenyl)-benzamide] |  | mortality had occurred in all groups

— patent publication US4933368A, “N-phenylbenzamide derivatives” (Godecke Aktiengesellschaft, priority 1983, dated 1990)
